## Apparent affinities of Ab-14 variants for a coronavirus HR2 peptide

From the AlphaSeq antibody data of Li et al. 2023 (doi:10.1038/s41467-023-39022-2), copy in the FLAb collection.

The target is the same throughout: PDVDLGDISGINAS, from the HR2 region of SARS-CoV-2 spike.

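This is the validation round: designs drawn from the data on random variants, tested in the same kind of assay. Several design methods are mixed in this list. AlphaSeq pools MATa yeast showing the antibodies with MATalpha yeast showing the peptide. Mating (16 h, 30 °C) was followed by selection of diploids and sequencing of their barcodes. The ratio of observed to expected reads was calibrated, replicate by replicate, on BCL2-family standards whose Kd was known from biolayer interferometry. There are six technical replicates.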

The variants keep the heavy chain, the linker and the frameworks of Ab-14 (scFv order VH, the linker GGGGSGGGGSGGGGS, VL).
VH: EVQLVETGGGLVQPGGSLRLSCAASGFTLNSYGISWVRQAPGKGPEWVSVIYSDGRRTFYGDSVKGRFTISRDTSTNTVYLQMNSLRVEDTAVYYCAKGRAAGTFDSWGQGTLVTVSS
VL: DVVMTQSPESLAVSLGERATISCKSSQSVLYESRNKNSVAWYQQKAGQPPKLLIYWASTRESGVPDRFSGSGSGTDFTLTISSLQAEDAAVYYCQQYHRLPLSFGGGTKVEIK

The parent's light chain CDRs are KSSQSVLYESRNKNSVA, WASTRES, QQYHRLPLS; each variant's own CDRs replace them letter for letter. This list holds designs with more than six substitutions. Each Kd is an estimate from the mating assay, the geometric mean of the replicates in which the pair was seen; lower is stronger. In the paper, a design with two or fewer of six values counts as a poor binder. The range of this assay differs from that of the first round, and the authors advise against merging the two. Empty control strains, which show no peptide, gave a signal in 4% of pairings with all light chain designs; the median was 430 nM and 95% of these signals were weaker than 38 nM. No background was subtracted. The parent sequence was in this pool as ten entries: three were never detected, three once, and four in most replicates, with averages from 2.2 nM to 240 nM.

The variant KISGLVNFFGHAINSVA / EMVTREN / QQYDRLPLS gave 13 nM (6 of 6 replicates). For KIRVQQYSQSEMEDNIA / QESTRHQ / QQYFHLPLS, the assay gave 80 nM (4 of 6 replicates). For HISMMVGTKGYNKRSVA / NAETRED / QQYHRLPLS, the assay gave 22 nM (4 of 6 replicates). For IVSQLMLWGYHAKNSIA / EAEKRLN / QQYHHLPLI, the assay gave 6.8 nM (2 of 6 replicates). The variant KVYGGINFQSSARNSIA / EEVMRTK / QQYARLPLS showed 6.8 nM (6 of 6 replicates). The variant MISDLTMYGSRMKNSVA / DLSTRGS / QQYHRLPLS showed 1.6 nM (6 of 6 replicates).

The variant HFSIGMNQGSSMEHNIA / EGTYAEE / QQYARLPLQ gave 17 nM (1 of 6 replicates). The variant TISGLILMPTRNKNSVA / NTSTRYS / QQYHRLPLS showed 5.7 nM (6 of 6 replicates). With KLGQMTAIESNNLNSVA / QMDTRES / QQYHRLPLS the result was 4.5 nM (6 of 6 replicates). The variant MFSQLTMYGSRNYNSVA / QASTRES / QQYHRLPLI gave 2.5 nM (6 of 6 replicates). For KLWMIFFEGQSELQAVA / NAGVLRQ / QQYNHLPLS, the assay gave 200 nM (1 of 6 replicates). The variant MLDQMDGQMGGNTNNIA / DVVENRI / QQYHRLPLS gave 7.1 nM (6 of 6 replicates).

The variant RVTIISDPYMRNRNNIA / QTSERAH / QQYQMLPLA showed 140 pM (6 of 6 replicates). With KMVKWESSGDRHAANIA / DANKITD / QQYYRLPLA the result was 930 pM (6 of 6 replicates). For MINQLYNMGSFAINSVA / QASERCN / QQYDRLPLI, the assay gave 8.8 nM (6 of 6 replicates). The variant KISASVNYEMVNGQSVA / QMSTREA / QQYDRLPLS gave 8.6 nM (6 of 6 replicates). The variant HFLSLDLHQTGTLNSVA / EAEERQE / QQYARLPLM showed 2.1 nM (6 of 6 replicates). For HMNHEYLEYSNYEGAIA / HGSQRLY / QQYSHLPLS, the assay gave 1.6 nM (6 of 6 replicates).

The variant HMLYAFNTGSLRDNNVA / EGETVLD / QQYFRLPIT gave 49 nM (6 of 6 replicates). The variant DVTVVDNGASKIQNSVA / HGVEKCD / QQYSRLPLA showed 1.8 nM (6 of 6 replicates). With TISGLMNHMMRNSNNVA / NMDMREM / QQYDRLPLS the result was 760 pM (6 of 6 replicates). For TLTQVQGMESHNKNSVA / DLSTRGN / QQYHRLPLS, the assay gave 2.3 nM (6 of 6 replicates). With KLMQSDLLESRNVNNVA / QASQREL / QDYHRLPLS the result was 1.7 nM (6 of 6 replicates). With KSSQSGLYYSRRKNSVA / YASTRAS / QQYHRDPLC the result was 80 nM (3 of 6 replicates).

The variant MLDQMDSQMGVNTNNVA / GVVESRI / QQYHRLPLS showed 31 nM (5 of 6 replicates). For TISTSALYESINKNSVA / ELSTRGS / QQYDRLPLS, the assay gave 89 nM (6 of 6 replicates). For HISANMWMQGSQWDAVA / QGDIANN / QQYSRLPLS, the assay gave 6.5 nM (6 of 6 replicates). The variant NLNTYYYGGTLNTDNIA / HGNMVEA / QQYDRLPLS showed 4.2 nM (6 of 6 replicates). With ILSQSVLMGMHTRNNVA / QATMRFN / QQYHRLPFM the result was 16 nM (2 of 6 replicates). With TITQFMDNLAKNRNNVA / DTSTLGQ / QSYDRLPLS the result was 8.4 nM (6 of 6 replicates).

4 of these entries, quoted again:

CDR-L1,CDR-L2,CDR-L3,apparent Kd,detected
KISGLVNFFGHAINSVA,EMVTREN,QQYDRLPLS,13 nM,6 of 6
KISASVNYEMVNGQSVA,QMSTREA,QQYDRLPLS,8.6 nM,6 of 6
KLMQSDLLESRNVNNVA,QASQREL,QDYHRLPLS,1.7 nM,6 of 6
HFLSLDLHQTGTLNSVA,EAEERQE,QQYARLPLM,2.1 nM,6 of 6